In brackets after ≈: the same amount, converted by molar mass.
Tests used:
[1] = tested on: MCF7/6 human mammary tumor; experiment: MCF7/6 human mammary tumor implanted in athymic mice; assay type: in vivo, mouse; conditions: athymic mice with implanted MCF7/6 human mammary tumor
Method: These experiments were carried out according to the protocols described in Example 11.

[2] = Degradation in human blood at 37 C
[3] = tested on: MCF7/6 human mammary carcinoma cells; experiment: Accumulation in MCF7/6 tumor cells (HPLC of cell extracts)
[4] = tested on: MRC5 fibroblast cells; experiment: Accumulation in MRC5 normal fibroblast cells (HPLC of cell extracts)
[5] = tested on: MRC5 fibroblast cells; experiment: Cytotoxicity with respect to MRC5 normal cells (72 h, Bradford protein)
[6] = tested on: MCF7/6 human mammary carcinoma cells; experiment: Cytotoxicity with respect to MCF7/6 tumor cells (72 h, Bradford protein)
[7] = tested on: conditioned medium from MCF7/6 mammary carcinoma cells; experiment: Degradation in conditioned medium from MCF7/6 mammary carcinoma cells (HPLC)

COc1cccc2c1C(=O)c1c(O)c3c(c(O)c1C2=O)C[C@@](O)(C(=O)CO)C[C@@H]3O[C@H]1C[C@H](NC(=O)[C@H](CC(C)C)NC(=O)[C@H](C)NC(=O)[C@H](CC(C)C)NC(=O)CCN)[C@H](O)[C@H](C)O1 [β-Ala-Leu-Ala-Leu-DOX, β-alanyl-L-leucyl-L-alanyl-L-leucyldoxorubicin]
mean weight of the mice treated [1]: without substantially affecting the mean weight
progression of the cancerous tumor (mean tumor mass) [1]: reduces the progression of the cancerous tumor
stability when incubated in human blood [2]: stable
prodrug hydrolyzed to L-Leu-DOX ([2]; human blood, after 2 hours): less than 2%
intracellular levels of DOX in MCF7 tumor cells, times as high as in MRC5 nontumor cells ([3]; 6 h incubation): 22 times
Accumulation after 6 h, A-L-A-L-DOX ([3]; MCF7/6 cells, 10 μg eq. DOX/ml): 0.10 μg/mg cellular prot.
Accumulation after 6 h, DOX ([3]; MCF7/6 cells, 10 μg eq. DOX/ml): 0.22 μg/mg cellular prot.
Accumulation after 6 h, Leu-DOX ([3]; MCF7/6 cells, 10 μg eq. DOX/ml): 0.65 μg/mg cellular prot.
accumulation, times less than DOX ([3]; MCF7/6 cells, after 6 hours): 69 times
intracellular DOX levels, times lower than with DOX ([3]; MCF7/6 cells, after 6 hours): 31 times
Accumulation after 6 h, A-L-A-L-DOX ([4]; 10 μg eq. DOX/ml): 0.10 μg/mg cellular prot.
Accumulation after 6 h, DOX ([4]; 10 μg eq. DOX/ml): 0.01 μg/mg cellular prot.
Accumulation after 6 h, Leu-DOX ([4]; 10 μg eq. DOX/ml): 0.10 μg/mg cellular prot.
accumulation, times less than DOX ([4]; after 6 hours): 112 times
intracellular DOX levels, times lower than with DOX ([4]; after 6 hours): 1100 times
IC50 (72 h) [5]: 120 µg/mL (≈ 132 µM)
times less cytotoxic than DOX ([5]; 72 hours): 6,700 times
times as toxic for MCF7 tumor cells as for MRC5 nontumor cells ([6]; 72 hours): 40 times
IC50 (72 h) ([6]; MCF7/6 cells): 3.0 µg/mL (≈ 3.29 µM)
times less cytotoxic than DOX ([6]; MCF7/6 cells, 72 hours): 1,000 times
rate of hydrolysis by the peptidase(s) secreted by MCF7/6 cells ([7]; compared with the DNR prodrug): hydrolyzed less rapidly than the DNR prodrug
Starting material or Metabolite, After 2 hours ([7]; β-Ala-Leu-Ala-Leu-DOX incubated at 37 C in MCF7/6 conditioned medium concentrated 20 times, share of each species, 2 hours): 23%
Starting material or Metabolite, Time 0 ([7]; β-Ala-Leu-Ala-Leu-DOX incubated at 37 C in MCF7/6 conditioned medium concentrated 20 times, share of each species, time 0): 100%
